Laboratory results published in patent US20110269812A1, “NOVEL BENZYLIDENE-INDOLINONE AND THEIR MEDICAL AND DIAGNOSTIC USES” (Agency for Science, Technology and Research, priority 2008, published 2011).

Tested on: NQO1
Experiment: Induction of NQO1 (QR) activity in Hepa1c1c7 cells
Settings: concentration for a 2-fold increase in NQO1 activity vs untreated Hepa1c1c7 cells; 48 h; mean and SD, n = 3

SMILES | QR Induction of Hepa1c1c cells CD
O=C1Nc2cc(Cl)ccc2/C1=C\c1cccc(C(F)(F)F)c1 [Compound 47, (E)-6-Chloro-3-(3-(trifluoromethyl)benzylidene)indolin-2-one] | 0.0041 ± 0.0009 µM
COc1ccc2c(c1)NC(=O)/C2=C/c1cccc(C(F)(F)F)c1 [Compound 48, (E)-6-Methoxy-3-(3-(trifluoromethyl)benzylidene)indolin-2-one] | 0.085 ± 0.014 µM
O=C1Nc2cc(F)ccc2/C1=C\c1cccc(C(F)(F)F)c1 [Compound 46, (E)-6-Fluoro-3-(3-(trifluoromethyl)benzylidene)indolin-2-one] | 0.016 ± 0.007 µM
COc1cccc(/C=C2/C(=O)Nc3ccc(Cl)cc32)c1 [Compound 40, (E)-5-Chloro-3-(3-methoxybenzylidene)indolin-2-one] | 0.36 ± 0.06 µM
COc1ccc(/C=C2/C(=O)Nc3cc(F)ccc32)cc1O [Compound 43, (E)-6-Fluoro-3-(3-hydroxy-4-methoxybenzylidene)indolin-2-one] | 0.11 ± 0.05 µM
C[S+]([O-])CCCCN=C=S (stereo not drawn) [sulforaphane, reference compound] | 0.26 (±0.04) μM
COc1cccc(/C=C2/C(=O)Nc3cc(OC)ccc32)c1 [Compound 42, (E)-6-Methoxy-3-(3-methoxybenzylidene)indolin-2-one] | 0.13 ± 0.05 µM
O=c1cc(-c2ccccc2)oc2ccc3ccccc3c12 [BNF, β-naphthoflavone, reference compound] | 0.028 (±0.003) μM
COc1cccc(/C=C2/C(=O)Nc3cc(Cl)ccc32)c1 [Compound 41, (E)-6-Chloro-3-(3-methoxybenzylidene)indolin-2-one] | 0.039 ± 0.01 µM
COc1cccc(/C=C2/C(=O)Nc3cc(F)ccc32)c1 [Compound 39, (E)-6-Fluoro-3-(3-methoxybenzylidene)indolin-2-one] | 0.17 ± 0.05 µM
COc1ccc2c(c1)NC(=O)/C2=C/c1ccc(OC)c(O)c1 [Compound 45, (E)-3-(3-Hydroxy-4-methoxybenzylidene)-6-methoxyindolin-2-one] | 0.24 ± 0.08 µM
COc1ccc(/C=C2/C(=O)Nc3cc(Cl)ccc32)cc1O [Compound 44, (E)-6-Chloro-3-(3-hydroxy-4-methoxybenzylidene)indolin-2-one] | 0.076 ± 0.01 µM
